Source: patent US20240025887A1, “THIENYL AND CYCLOALKYL AMINOPYRIMIDINE COMPOUNDS AS INHIBITORS OF NUAK KINASES, COMPOSITIONS AND USES THEREOF” (Ontario Institute for Cancer Research (OICR), priority 2021, published 2024)

The chains behind the UniProt entries cited, without tags or fusion partners.
UniProt O14965, whole entry: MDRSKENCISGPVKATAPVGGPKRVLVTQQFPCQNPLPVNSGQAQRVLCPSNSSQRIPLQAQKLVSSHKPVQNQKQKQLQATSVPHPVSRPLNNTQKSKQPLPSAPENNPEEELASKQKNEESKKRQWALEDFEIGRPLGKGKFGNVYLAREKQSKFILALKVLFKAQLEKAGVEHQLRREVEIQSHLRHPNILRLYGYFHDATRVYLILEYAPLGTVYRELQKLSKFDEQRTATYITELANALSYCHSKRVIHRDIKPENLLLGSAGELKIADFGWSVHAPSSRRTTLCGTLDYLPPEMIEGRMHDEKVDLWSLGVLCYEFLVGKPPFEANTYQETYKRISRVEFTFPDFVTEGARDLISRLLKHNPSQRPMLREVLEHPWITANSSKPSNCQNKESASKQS
UniProt O60285, whole entry: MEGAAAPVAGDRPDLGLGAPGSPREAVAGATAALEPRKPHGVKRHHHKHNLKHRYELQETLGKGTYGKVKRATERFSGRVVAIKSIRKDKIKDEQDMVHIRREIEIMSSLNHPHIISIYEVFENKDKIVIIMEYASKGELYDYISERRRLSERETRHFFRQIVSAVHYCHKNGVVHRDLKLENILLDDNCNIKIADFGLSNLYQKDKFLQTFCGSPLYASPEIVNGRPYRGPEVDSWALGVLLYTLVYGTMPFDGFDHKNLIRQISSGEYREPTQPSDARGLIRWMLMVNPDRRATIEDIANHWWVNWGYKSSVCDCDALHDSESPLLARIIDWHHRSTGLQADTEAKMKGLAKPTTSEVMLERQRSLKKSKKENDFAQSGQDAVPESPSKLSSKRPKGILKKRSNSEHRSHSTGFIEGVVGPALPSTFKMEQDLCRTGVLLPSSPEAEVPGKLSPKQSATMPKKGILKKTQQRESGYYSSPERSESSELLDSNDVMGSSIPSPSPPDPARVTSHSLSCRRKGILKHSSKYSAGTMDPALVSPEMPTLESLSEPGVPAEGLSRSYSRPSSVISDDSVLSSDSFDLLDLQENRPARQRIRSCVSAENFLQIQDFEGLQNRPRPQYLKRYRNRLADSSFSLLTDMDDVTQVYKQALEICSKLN
UniProt Q9H093, whole entry: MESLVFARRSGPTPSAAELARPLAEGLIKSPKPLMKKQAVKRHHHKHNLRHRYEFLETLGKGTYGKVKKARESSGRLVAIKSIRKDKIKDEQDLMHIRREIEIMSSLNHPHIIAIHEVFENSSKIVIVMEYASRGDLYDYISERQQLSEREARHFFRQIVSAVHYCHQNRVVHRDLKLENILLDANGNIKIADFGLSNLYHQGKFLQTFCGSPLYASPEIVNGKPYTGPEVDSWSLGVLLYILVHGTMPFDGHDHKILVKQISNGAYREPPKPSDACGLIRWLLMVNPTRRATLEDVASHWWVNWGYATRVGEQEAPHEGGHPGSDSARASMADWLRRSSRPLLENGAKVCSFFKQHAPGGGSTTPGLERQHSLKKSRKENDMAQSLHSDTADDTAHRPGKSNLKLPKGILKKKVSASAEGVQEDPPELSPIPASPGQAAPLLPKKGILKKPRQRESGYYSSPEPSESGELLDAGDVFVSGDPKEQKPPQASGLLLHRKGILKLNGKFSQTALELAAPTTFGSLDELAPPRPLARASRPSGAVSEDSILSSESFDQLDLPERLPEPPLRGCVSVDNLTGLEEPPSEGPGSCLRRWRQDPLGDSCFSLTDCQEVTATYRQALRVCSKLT

Legend:
Assay type in all cases: biochemical
[1] = molecular target: Aurora A (Homo sapiens, UniProt O14965); experiment: Aurora A counter screen; settings: read-out: AUR-A (IC50)
Experimental: (§1) To identify small molecule NUAK inhibitors, a biochemical NUAK2 enzymatic assay was outsourced to Eurofins. This assay was done radiometrically using full-length, recombinant enzyme. NUAK2 (h) was incubated with 8 mM MOPS pH 7.0, 0.2 mM EDTA, 300 μM […], 10 mM magnesium acetate and […] (specific activity and concentration as required). The reaction was initiated by the addition of the Mg/ATP mix. After incubation for 40 minutes at room temperature, the reaction was stopped by the addition of phosphoric acid to a concentration of 0.5%. 10 μL of the reaction was then spotted onto a P30 filter mat and washed four times for 4 minutes in 0.425% phosphoric acid and once in methanol prior to drying and scintillation counting. Compounds were routinely counter screened against Aurora A and NUAK1. The results are shown in Table 1 where IC50s are reported the following ranges: A: 0.1-10 nM; B: 11-100 nM; C: 101-1000 nM; D: >1000 nM for the compounds of Formula I)

[2] = molecular target: NUAK1 (Homo sapiens, UniProt O60285); experiment: NUAK1 counter screen; settings: read-out: NUAK1 (IC50)
Experimental: as §1

[3] = molecular target: NUAK2 (h) (Homo sapiens, UniProt Q9H093); experiment: NUAK2 enzymatic assay (radiometric, Eurofins); settings: read-out: NUAK2 (IC50), full-length recombinant enzyme
Experimental: as §1

Compound `Cc1cnc(Nc2ccc(N3C[C@@H](C)N(C)[C@@H](C)C3)cc2OC(F)F)nc1Nc1ccsc1C(N)=O` has an IC50 [1] of 0.101 to 1 µM, an IC50 [2] of 0.011 to 0.1 µM and an IC50 [3] of 0.011 to 0.1 µM.
